Several values for one entry are separate records, joined by “and”; a condition that tells them apart may be missing. Equal entries are not always repeated. This is a selection; strong and weak results do not stand in their true shares. Activity calls are given as the source filed them. Rule as the data show it: active = z-score above about 3.2; inactive = the rest.

The assay has as its target M-phase inducer phosphatase 2 (Homo sapiens) + Cyclin-dependent kinase 2 (Homo sapiens) + Cyclin-A2 (Homo sapiens) (UniProt P30305+P24941+P20248). As to the kind of experiment: primary biochemical HTRF screen for inhibition of M-phase inducer phosphatase 2 binding to cyclin-dependent kinase 2/cyclin A (AID 1259370). The following applies: HTRF CDC25B-CDK2/CyclinA binding, anti-His/anti-Flag; active compounds read high. In general terms: Time-resolved FRET reads energy transfer from a long-lived donor to a nearby acceptor.
As for `COC(=O)NC(Sc1ccc(Cl)cc1)C(Cl)Cl` (configuration not stated), the z-score was inactive: -0.07.

As to `O=[N+]([O-])C1([N+](=O)[O-])COCOC1`, the z-score is inactive: -2.49.

For the compound `O=[N+]([O-])OCCC(CN1CCN(CC(CCO[N+](=O)[O-])([N+](=O)[O-])[N+](=O)[O-])CC1)([N+](=O)[O-])[N+](=O)[O-]`, the z-score is inactive: 0.68.

For `C=CCN1CCN(CCOC(=O)C(O)(c2ccccc2)c2ccccc2)CC1`, the z-score is inactive: -0.67.

`CC[N+](CC)=C1S[C@@H]2CS(=O)(=O)C(Br)[C@]2(C)S1` (some centres not stated): the z-score is inactive: -1.74.

As for `O=C(OC1CN2CCC1CC2)c1cccc(F)c1` (configuration not stated), the z-score was inactive: -2.13.

In the case of `NCCSP(=O)(O)O`, the z-score was inactive: -1.07.

With `ClC(Cl)(Cl)C1=NP2(=NC(c3ccccc3)=N1)OCCCO2`, the z-score is inactive: -2.29.

With `CN(C(=O)Cc1ccc(Cl)c(Cl)c1)[C@H]1CCCC[C@@H]1N1CCCC1`, the z-score was inactive: 0.44 and inactive: -1.53.

On to `O=C(CCc1ccccc1)OC1CN2CCC1CC2` (configuration not stated), for which the z-score is inactive: 1.38.

On to `CN(C)CCOC(=O)C(O)(c1ccccc1)C1CCCC1` (configuration not stated), for which the z-score is inactive: -1.71.

With `N=C1N=C(c2ccc([N+](=O)[O-])cc2)CC(C(Cl)(Cl)Cl)S1` (configuration not stated), the z-score was inactive: 1.94.

As to `CCOP(C)(=S)SCN(CC(=O)O)C(=O)OCc1ccccc1` (configuration not stated), the z-score was inactive: 1.12.

On to `O=C(OC1CN2CCC1CC2)C12CC3CC(CC(C3)C1)C2` (configuration not stated), for which the z-score was inactive: -0.99.

For `CCOC(=O)/C(=N/Nc1ccc([N+](=O)[O-])cc1)N1CC1`, the z-score was inactive: -1.08.

Regarding `O=C(COc1ccc(F)cc1)OC1CN2CCC1CC2` (configuration not stated), the z-score was inactive: -0.15.

In the case of `CCCOP(=O)(OCCC)O/C(C)=C/SC#N`, the z-score is inactive: -0.5.

Regarding `O=C(O)C1(O)c2ccccc2-c2ccccc21`, the z-score was inactive: -2.1.

As to `CCOP(C)(=S)SCSCC(=O)OCC(C)C` (configuration not stated), the z-score was inactive: -1.24.

For the compound `O=[N+]([O-])c1nnn(CN(Cn2nnc([N+](=O)[O-])n2)[N+](=O)[O-])n1`, the z-score was inactive: -1.01.

In the case of `O=C(NNC(=O)c1ccncc1)NP1Oc2ccccc2O1`, the z-score is inactive: -0.7.

For `CN(C)CCOC(=O)C(O)(c1ccccc1)c1ccccc1`, the z-score is inactive: -1.53.

On to `CC1=NCCCN1C.O=[N+]([O-])c1cc([N+](=O)[O-])c(O)c([N+](=O)[O-])c1`, for which the z-score was inactive: -2.87.

Turning to `Nc1nonc1N=Nc1nonc1N`, the z-score is inactive: -2.26.

Regarding `O=C(COc1ccccc1)OC1CN2CCC1CC2` (configuration not stated), the z-score is inactive: 1.49.

With `COC(=O)C1=C(C(=O)OC)S[C@](Br)(C(=O)OC)[C@@](Br)(C(=O)OC)S1`, the z-score was inactive: 1.11.

As for `O=[N+]([O-])c1nonc1COc1nonc1[N+](=O)[O-]`, the z-score was inactive: -2.72.

`Cc1cc(NP(=O)(Oc2ccccc2)Oc2ccccc2)no1`: the z-score was inactive: -0.8.

`O=C(OC1CN2CCC1CC2)c1cccc([N+](=O)[O-])c1` (configuration not stated): the z-score was inactive: -1.93.

In the case of `BrC1CSc2nc3ccccc3n2C1c1ccccc1` (configuration not stated), the z-score was inactive: -0.08.

For `O=[N+]([O-])C(F)(F)COc1nc(OCC(F)(F)[N+](=O)[O-])nc(OCC(F)(F)[N+](=O)[O-])n1`, the z-score is inactive: -2.7.

In the case of `Cc1n[n+]2c([nH]c1=O)SCC(Br)C2c1ccccc1` (configuration not stated), the z-score was inactive: -0.99.

Consider `CN1CC(=O)N/C1=N\P(=O)(OCc1ccccc1)OCc1ccccc1`, for which the z-score was inactive: -1.92.

Consider `CN(C(=O)Cc1ccccc1)[C@@H]1CC[C@]2(CCCO2)C[C@H]1N1CCCC1`, for which the z-score is inactive: -1.2.

For `COc1cc(-n2cnnn2)ccc1-n1cnnn1`, the z-score is inactive: -1.02.

Consider `CN(C(=O)Cc1ccc(Cl)c(Cl)c1)[C@@H]1CC[C@]2(CCCO2)C[C@H]1N1CCCC1`, for which the z-score is inactive: -1.

Turning to `Nc1nonc1N=NNc1nonc1N`, the z-score is inactive: -3.09.
